Antibody variant affinities, Ab-14 light chain, assay 1

Data: MIT Lincoln Laboratory AlphaSeq set, Engelhart et al. 2022, doi:10.1038/s41597-022-01779-4, as distributed in FLAb.

All variants were tested on one target, the spike HR2 peptide PDVDLGDISGINAS (SARS-CoV-2).

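Phage display of a naive human antibody library on the peptide gave the parent. Library AAYL50 holds single substitutions and randomly drawn double and triple substitutions in the CDRs. In AlphaSeq, yeast of one mating type display the scFv and yeast of the other type display the target. After mating in shaken culture at 30 °C for 16 h, diploids were selected and their barcode pairs sequenced. Scores were corrected for input abundance and mapped to Kd with protein pairs of known affinity run in the same pool. Mating was done three times.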

Parent: Ab-14, a human scFv built as VH, a 15-residue (Gly4Ser)3 linker, VL. Only the CDRs of the light chain vary.
VH: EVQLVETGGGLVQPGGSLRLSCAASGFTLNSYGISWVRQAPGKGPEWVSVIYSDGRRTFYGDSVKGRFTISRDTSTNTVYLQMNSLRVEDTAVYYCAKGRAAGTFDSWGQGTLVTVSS
VL: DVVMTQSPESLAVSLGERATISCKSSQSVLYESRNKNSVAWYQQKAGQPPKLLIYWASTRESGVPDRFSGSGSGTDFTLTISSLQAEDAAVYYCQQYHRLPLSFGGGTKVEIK

Changes read parent residue, position, new residue, counted from the first residue of the VL shown. Affinities are written as log10 Kd with Kd in nM; a lower number is a better binder. Replicates are averaged; those with no signal do not enter the mean. "ND" marks a missing value. The strain was present, yet no cells mated with the target were sequenced in that replicate, which points to weak or no binding. Nonspecific signal, from three strains lacking the peptide, appeared in 18% of pairings of library AAYL50, centred on 4.19 (5% of these signals below 2.99); values are not corrected for it. The control count says in how many pairings with the empty strains this scFv gave a signal, with their mean in brackets.

changes,"log10 Kd, replicates",mean log10 Kd (nM),empty controls
K24F S62L Q95N,ND ND ND,ND,2 of 9 (3.99)
V29I V39F E61S,ND 3.44 3.13,3.29,3 of 9 (3.46)
S28K S33L A40W,ND 4.01 ND,4.01,0 of 9
A40G R99W,ND 3.92 6.13,5.02,7 of 9 (3.99)
S25R S26R Q96V,ND ND ND,ND,1 of 9 (2.79)
Q27P E61P H98Q,0.79 1.08 0.93,0.93,7 of 9 (4.64)
E32G V39D A57V,ND 3.79 ND,3.79,1 of 9 (4.25)
S25F T59K E61N,0.63 0.79 0.53,0.65,3 of 9 (3.83)
K24Y K36H R60S,ND ND ND,ND,1 of 9 (3.85)
R34D N35I S38W,3.70 3.60 3.73,3.68,0 of 9
Y31R N35S K36I,3.27 ND ND,3.27,2 of 9 (3.28)
L30R Y97E S103W,ND ND ND,ND,1 of 9 (4.61)
Q27G S33I T59M,2.63 3.17 ND,2.90,0 of 9
N35P A57D S58T,ND ND ND,ND,2 of 9 (4.56)
K24P Q27T,3.97 3.38 ND,3.68,2 of 9 (4.06)
Y31R E32F Q95M,ND ND 3.26,3.26,3 of 9 (3.41)
L30M N35A Y97R,ND ND ND,ND,1 of 9 (4.33)
S28C V29D Q96T,ND ND ND,ND,0 of 9
Q96C L100S,5.59 ND ND,5.59,0 of 9
S26N N35S A57K,3.46 2.96 3.12,3.18,3 of 9 (4.03)
A40C R60V S62R,ND ND ND,ND,2 of 9 (4.64)
R34C N35D T59W,2.18 2.05 2.21,2.15,2 of 9 (3.93)
S25W Y31T S62F,0.85 1.09 0.95,0.96,2 of 9 (4.12)
K24E S33M Q96F,ND ND ND,ND,3 of 9 (4.00)
E32V S38K,ND ND ND,ND,0 of 9
E32P K36A P101G,0.71 0.81 0.67,0.73,1 of 9 (4.55)
K36P T59G P101E,ND ND 3.51,3.51,2 of 9 (4.19)
V29K V39G W56Y,ND ND ND,ND,0 of 9
K36E R99A,0.40 0.75 0.62,0.59,0 of 9
S25W S38A L102K,1.20 0.97 1.03,1.07,0 of 9
V39K Q95K H98S,ND ND ND,ND,4 of 9 (3.16)
R34S T59S L102C,1.93 1.69 1.74,1.79,2 of 9 (3.95)
K36S S58D Q95A,2.96 2.75 3.44,3.05,6 of 9 (4.62)
S26F A40W A57K,ND ND ND,ND,2 of 9 (4.13)
N35K A57K P101A,ND ND ND,ND,3 of 9 (3.97)
K36W S58T P101Y,ND ND ND,ND,0 of 9
E61G R99K L100F,1.09 1.34 1.53,1.32,1 of 9 (4.00)
V29H V39F R99P,ND ND ND,ND,0 of 9
A57E S58L S62G,4.02 ND ND,4.02,1 of 9 (6.06)
Q27A S28G R34F,0.66 0.79 0.82,0.76,0 of 9
V29P A40R S58T,ND ND ND,ND,3 of 9 (3.94)
S38G P101N S103L,1.90 1.45 1.16,1.50,0 of 9
Q27K Y31Q K36C,0.56 0.76 0.55,0.62,1 of 9 (3.43)

Repeated from above, the 5 best binders with a signal in all replicates:

changes	log10 Kd, replicates	mean log10 Kd (nM)	empty controls
K36E R99A	0.40 0.75 0.62	0.59	0 of 9
Q27K Y31Q K36C	0.56 0.76 0.55	0.62	1 of 9 (3.43)
S25F T59K E61N	0.63 0.79 0.53	0.65	3 of 9 (3.83)
E32P K36A P101G	0.71 0.81 0.67	0.73	1 of 9 (4.55)
Q27A S28G R34F	0.66 0.79 0.82	0.76	0 of 9